The source of these data is PubChem BioAssay AID2235 (The Scripps Research Institute Molecular Screening Center, 2010).

The chains behind the UniProt entries cited, without tags or fusion partners.
UniProt P62136, whole entry, looked up: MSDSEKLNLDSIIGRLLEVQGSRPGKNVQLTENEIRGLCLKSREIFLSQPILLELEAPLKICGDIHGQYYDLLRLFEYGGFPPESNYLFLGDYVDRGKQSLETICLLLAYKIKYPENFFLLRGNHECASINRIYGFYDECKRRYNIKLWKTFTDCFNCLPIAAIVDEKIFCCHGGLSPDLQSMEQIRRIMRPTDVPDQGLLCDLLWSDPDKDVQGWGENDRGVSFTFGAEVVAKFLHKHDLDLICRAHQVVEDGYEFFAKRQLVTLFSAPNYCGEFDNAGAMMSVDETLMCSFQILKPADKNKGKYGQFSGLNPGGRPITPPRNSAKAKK

This is a selection; strong and weak results do not stand in their true shares. Activity calls are given as the source filed them.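 How the source made its calls: active means inhibition above the mean inhibition of all tested compounds plus 3 SD, computed separately for each screening campaign (cut at about 15% in these data); inactive means the rest.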

This test concerns the target Serine/threonine-protein phosphatase PP1-alpha catalytic subunit (Homo sapiens) (UniProt P62136). The experiment in a line: inhibition of human PP1 catalytic subunit – biochemical, fluorescence, OMFP substrate, single point, counter-screen for PP5 inhibitor project, primary screen (AID 2235). To be noted: purified PP1alpha, at 6.7 µM, hits give high values.
A word on the inhibition: it is the drop in the measured response relative to a control, in per cent. For the compound `CN(C)C1(CNC(=O)c2ccc(S(C)(=O)=O)cc2)CCCCC1`, the inhibition is inactive: -4.02%.

Regarding `O=C(/C=C/c1ccccc1)OC1CN2CCC1CC2` (stereo not given), the inhibition was inactive: 4.39%.

Regarding `Cc1ccc(C(=O)OC2CN3CCC2CC3)cc1` (stereo not given), the inhibition was inactive: -0.65%.

Turning to `CC1CCC(C(C)C)C(OP(=O)(Nc2ccccn2)c2ccccc2)C1` (stereo not given), the inhibition is inactive: 2.63%.

Consider `Cc1nn(-c2ccccc2)c2c1P(=O)(N1CCOCC1)N(C)C(c1ccccc1)=N2` (stereo not given), for which the inhibition was inactive: -2.61%.

As to `Nc1cccc([As](=O)(O)c2ccccc2)c1`, the inhibition is inactive: -3.33%.

As for `Cc1ccc(OCC(=O)OC2CN3CCC2CC3)cc1` (stereo not given), the inhibition is inactive: -1.09%.

As for `O=[As](O)(c1cccs1)c1cccs1`, the inhibition is inactive: -5.45%.

On to `NS(=O)(=O)c1cccc(NC(=O)COC(=O)C(O)(c2ccccc2)c2ccccc2)c1`, for which the inhibition was inactive: -3.3%.

For `O=P1(Nc2ccc(Br)cn2)COc2ccccc2OC1`, the inhibition was inactive: 2.27%.

Regarding `O=P1(Nc2ncccn2)COc2ccccc2OC1`, the inhibition is inactive: -2.43%.

`CC(C)(C)C(=O)NC(Sc1ncccn1)C(Cl)(Cl)Cl` (stereo not given): the inhibition is inactive: -2.63%.

As to `Clc1n[nH]nc1-c1nn[nH][15n]1`, the inhibition is inactive: -1.77%.

As to `CCOP(=O)(NC(=NC(C)c1ccccc1)NC(C)c1ccccc1)OCC` (stereo not given), the inhibition is inactive: 1.94%.

As for `CCC1=CC2Cc3nc4ccc(Cl)cc4c(N)c3C(C1)C2` (stereo not given), the inhibition was inactive: -0.88%.

`O=P1(Nc2ccccn2)COc2ccccc2OC1`: the inhibition was inactive: -6.86%.

Turning to `CCOP(=O)(Nc1ccc(C)cn1)OCC`, the inhibition is inactive: 2.54%.

Regarding `CN(CCCl)Cc1cc(Cl)c(NC2=NCCN2)c(Cl)c1`, the inhibition is inactive: -1.34%.

With `CN(C(=O)Cc1ccc(Cl)c(Cl)c1)[C@@H]1CCCC[C@H]1N1CCCC1`, the inhibition was inactive: -1.91%.

Regarding `CC(C)/C=N\N=C(\N)N[N+](=O)[O-]`, the inhibition is inactive: -1.75%.

In the case of `CC1(CBr)Cn2c(nc3ccccc3c2=O)S1` (stereo not given), the inhibition was inactive: 1.46%.

Turning to `O=[As](O)(c1ccccc1Br)c1ccccc1Br`, the inhibition was inactive: -0.24%.

`COc1ccccc1CNC(=O)COC(=O)C(O)(c1ccccc1)c1ccccc1`: the inhibition is inactive: 4.04%.

As for `Cc1cccc(OCC(=O)OC2CN3CCC2CC3)c1` (stereo not given), the inhibition is inactive: 0.88%.

As for `O=[As](O)(c1cccc(O)c1)c1cccc(O)c1`, the inhibition is inactive: -3.9%.

Consider `O=C(OC1CN2CCC1CC2)c1ccc(Cl)cc1` (stereo not given), for which the inhibition is inactive: -0.48%.

As to `CS(=O)(=O)c1ccc(Cl)c(NC(=O)COC(=O)C(O)(c2ccccc2)c2ccccc2)c1`, the inhibition is inactive: -1.07%.

Consider `O=[As](O)(O)c1cccnc1`, for which the inhibition is inactive: -1.49%.

Regarding `COc1cc(C(=O)NCC2(N3CCOCC3)CCCCC2)cc(Cl)c1OC(C)C`, the inhibition was inactive: -1.58%.

Consider `CCOP(=O)(Nc1cccc2ccccc12)OCC`, for which the inhibition is inactive: 0.67%.

With `COc1cc(C2NCCC3(OCCO3)C2(C)C)cc(OC)c1OC` (stereo not given), the inhibition is inactive: 0%.

For the compound `Cc1ccc(NCCc2c([N+](=O)[O-])cc([N+](=O)[O-])cc2[N+](=O)[O-])cc1`, the inhibition was inactive: -6.6%.

For `Nc1cccc2c([As](=O)(O)O)cccc12`, the inhibition is inactive: 14.8%.

As to `CCCOP(=S)(Nc1nc(N)cc(=O)[nH]1)OCCC`, the inhibition was inactive: 2.24%.

With `O=C(O)COc1ccc([As](=O)(O)O)cc1[N+](=O)[O-]`, the inhibition was inactive: 2.08%.

On to `Nc1ccccc1[As](=O)(O)c1ccccc1`, for which the inhibition is inactive: -3.32%.

With `O=P(Nc1nccs1)(Oc1ccccc1)Oc1ccccc1`, the inhibition is inactive: -1.27%.

Turning to `O=P(Nc1nccs1)(c1ccccc1)c1nc2ccccc2s1` (stereo not given), the inhibition was inactive: 11.2%.

As for `CCOP1(=S)c2c(C)nn(CCC#N)c2N=C(c2ccccc2F)N1C` (stereo not given), the inhibition is inactive: -1.32%.

For `CS(=O)(=O)c1cc([N+](=O)[O-])c2no[n+]([O-])c2c1`, the inhibition was inactive: -0.97%.

With `CCOP1(=S)c2c(C)nn(CCC#N)c2N=C(c2ccc(F)cc2)N1C` (stereo not given), the inhibition is inactive: -2.63%.

Consider `CN(C(=O)Cc1ccccc1)[C@@H]1CC[C@]2(CCCO2)C[C@H]1N1CCCC1`, for which the inhibition was inactive: -0.84%.

As to `N#CCCN(C(=O)COC(=O)C(O)(c1ccccc1)c1ccccc1)c1ccc(F)cc1`, the inhibition is inactive: 1.01%.

On to `CN(C(=O)Cc1ccc(Cl)c(Cl)c1)[C@H]1CC[C@@]2(CCCO2)C[C@@H]1N1CCCC1`, for which the inhibition was inactive: -0.63%.

`O=[N+]([O-])c1ccc2c(c1)nnn2O`: the inhibition was inactive: -2.47%.

Consider `CN(C)C(=O)c1cc([N+](=O)[O-])cc2c1-c1c(cc([N+](=O)[O-])cc1[N+](=O)[O-])C2=O`, for which the inhibition is inactive: -0.21%.

For the compound `NC(=O)Nc1ccc([As](=O)(O)O)cc1`, the inhibition was inactive: 2.38%.

`Cc1ccc(OP(=O)(Nc2ccc([N+](=O)[O-])cn2)Oc2ccc(C)cc2)cc1`: the inhibition was inactive: -0.78%.

Regarding `Cc1ccc2nc3c(c(C)c2c1)CC(C(Cl)Cl)S3` (stereo not given), the inhibition was inactive: 0.73%.

In the case of `COc1cc(C(=O)NCC2(N3CCOCC3)CCCCC2)ccc1OCC(C)C`, the inhibition was inactive: -1.61%.

As to `O=[As](O)(c1ccc(O)cc1)c1ccccc1O`, the inhibition was inactive: 1.94%.

On to `C[As](=O)(O)c1cccc(C(=O)O)c1`, for which the inhibition was inactive: 4.79%.

On to `O=[N+]([O-])c1cc([N+](=O)[O-])c(-c2ccn[nH]2)s1`, for which the inhibition is inactive: -2.03%.

Turning to `CC(C)NC(=O)NP(=O)(Oc1ccccc1)Oc1ccccc1`, the inhibition was inactive: -1.49%.

As to `CCN(CC)C(=S)SC(NC=O)C(Cl)(Cl)Cl` (stereo not given), the inhibition was inactive: -2.08%.

For `ClCCSc1nnc(-c2cccnc2)o1`, the inhibition is inactive: -1.34%.

Take `CC(C)c1ccc(OP(=O)(Nc2ccccn2)Oc2ccccc2F)cc1` (stereo not given): the inhibition was inactive: -1.6%.

Regarding `COc1cc(I)ccc1[As](=O)(O)O`, the inhibition was inactive: 0.53%.

For `COc1ccc2nc(NP(=O)(c3ccccc3)c3ccccc3)sc2c1`, the inhibition was inactive: -0.42%.

With `Cc1c2c(nc3ccccc13)SC(C(Cl)Cl)C2` (stereo not given), the inhibition was inactive: 4.72%.

For the compound `Cc1cc(=O)[nH]c(N[N+](=O)[O-])n1`, the inhibition was inactive: -4.26%.

For the compound `O=C(OC1CN2CCC1CC2)C12CC3CC(CC(C3)C1)C2` (stereo not given), the inhibition is inactive: -2.15%.

With `COc1ccc(N/C(=N/P(=O)(N2CCOCC2)N2CCOCC2)N2CCOCC2)cc1`, the inhibition is inactive: 3.53%.

Turning to `O=C(Nc1ccncc1[N+](=O)[O-])c1ccc([N+](=O)[O-])cc1[N+](=O)[O-]`, the inhibition was inactive: -2.48%.

On to `O=C(COc1ccccc1)OC1CN2CCC1CC2` (stereo not given), for which the inhibition is inactive: -1.9%.

`COP1(=S)c2c(C)nn(CCC#N)c2N=C(c2ccc(F)cc2)N1C` (stereo not given): the inhibition is inactive: -1.78%.

`CCC(C)N(CC(C)C)C(=S)SC(NC(C)=O)C(Cl)(Cl)Cl` (stereo not given): the inhibition was inactive: -0.87%.

`O=C(OC1CN2CCC1CC2)c1cccc([N+](=O)[O-])c1` (stereo not given): the inhibition was inactive: 2.16%.

Take `CCOC(=O)c1ccc(NC(=O)C(C)(CCl)SC)cc1` (stereo not given): the inhibition is inactive: 3.64%.

As for `Cc1cc(SC(NC(=O)c2ccccc2)C(Cl)(Cl)Cl)nc(C(C)C)n1` (stereo not given), the inhibition is inactive: -2.24%.

With `CCOC(=O)Nc1ccc([As](=O)(O)O)c(O)c1`, the inhibition is inactive: -0.13%.

For `Cc1cc(SC(NC=O)C(Cl)(Cl)Cl)ncn1` (stereo not given), the inhibition was inactive: -5.03%.

Consider `O=P(Nc1ccccn1)(c1cccc2ccccc12)c1cccc2ccccc12`, for which the inhibition was inactive: 1.45%.

Consider `CCOC(=O)Nc1cccc([As](=O)(O)O)c1`, for which the inhibition was inactive: -1.55%.

As for `O=C(Nc1cc([As](=O)(O)O)ccc1O)c1ccccc1`, the inhibition was inactive: -2.88%.

For the compound `O=[N+]([O-])c1cccc(NC2=NCC(CBr)S2)c1` (stereo not given), the inhibition is inactive: -1.04%.

For `O=[N+]([O-])c1ncn(CCn2ncnc2[N+](=O)[O-])n1`, the inhibition was inactive: -4.62%.

For the compound `CC(C)(C)C(=O)NC(Sc1ccncn1)C(Cl)(Cl)Cl` (stereo not given), the inhibition is inactive: -3.7%.

For the compound `O=[N+]([O-])c1cc([N+](=O)[O-])c(CCNc2ccccc2)c([N+](=O)[O-])c1`, the inhibition is inactive: -2.81%.

As for `CCc1nc2c(n1)c1c(non1O)c1c2no[n+]1[O-]`, the inhibition is inactive: 4.48%.

Regarding `Cc1ccc(NP(=O)(Oc2ccccc2)Oc2ccccc2)nc1`, the inhibition was inactive: 5.04%.

Take `CC(=O)N1C2C3N(C(C)=O)C1C1N(C(C)=O)C(C(N1C(C)=O)N3C(C)=O)N2C(C)=O`: the inhibition is inactive: -0.66%.

As to `O=[N+]([O-])c1cccc2n[nH]nc12`, the inhibition was inactive: -4.11%.

For the compound `COc1ccc(C2=NCC(CBr)S2)cc1` (stereo not given), the inhibition is inactive: -4.06%.

Consider `CC1CCN(C(=O)Oc2c(Cl)cc(Cl)c3cccnc23)CC1`, for which the inhibition was inactive: 0.32%.

For `CN(C)C(=O)OCCc1n(C)cc[n+]1C`, the inhibition is inactive: -1.26%.

With `CC(C)=N/N=C(\N)N[N+](=O)[O-]`, the inhibition is inactive: -4.11%.

As to `CCN(/C(=N/P(=O)(N1CCOCC1)N1CCOCC1)N1CCOCC1)c1ccc(OC)cc1`, the inhibition is inactive: -3.14%.

Regarding `C[N+]1=C2C=CC=CC=C2SC12C([N+](=O)[O-])=CC([N+](=O)[O-])=C[C-]2[N+](=O)[O-]` (stereo not given), the inhibition is inactive: 9.14%.

As for `Nc1ccc([As](=O)(O)c2ccc(N)cc2)cc1`, the inhibition was inactive: -0.01%.

With `CN1CCCC(OC(=O)C(c2ccccc2)c2ccccc2)C1` (stereo not given), the inhibition is inactive: -3.16%.

Turning to `Clc1ccc(Cl)c(NC2=NCC(CBr)S2)c1` (stereo not given), the inhibition was inactive: 0.04%.

For `Cc1ccc(OP(=O)(Nc2nccs2)Oc2ccc(C)cc2)cc1`, the inhibition is inactive: -4.19%.

Turning to `COc1ccccc1OP(=O)(Nc1ccc(C)cn1)Oc1ccccc1OC`, the inhibition was inactive: -0.57%.

In the case of `Cc1ccc(N/C(=N/P(=O)(N2CCOCC2)N2CCOCC2)N2CCOCC2)cc1`, the inhibition is inactive: 1.2%.

With `CN(C(=O)Cc1ccc(Cl)c(Cl)c1)[C@H]1CCCC[C@H]1N1CCCC1`, the inhibition was inactive: -1.95%.

As for `NC(=O)c1cc([N+](=O)[O-])cc([N+](=O)[O-])c1N`, the inhibition was inactive: 1.93%.

For `O=C(NC(Sc1ccncn1)C(Cl)(Cl)Cl)c1ccccc1` (stereo not given), the inhibition was inactive: -0.1%.

Turning to `Cc1c2non([O-])c-2c(C)[n+](=O)[n+]1[O-]`, the inhibition was inactive: -2.51%.

On to `Oc1ccccc1CNc1ccccn1`, for which the inhibition was inactive: 1.14%.
